The text below walks through data of patent US20100151566A1.

Protein sequences, listed by entry. Tags and fused reporters are not part of them. Chains listed by the source or under a name are the forms on record and can include a tag or linker.
UniProt P15692, other isoform, or with tags, fused parts or gaps: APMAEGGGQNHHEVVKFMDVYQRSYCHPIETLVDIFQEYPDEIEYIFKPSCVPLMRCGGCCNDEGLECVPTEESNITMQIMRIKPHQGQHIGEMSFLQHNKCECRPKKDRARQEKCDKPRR

Assay [1] deals with Isoform 121 of human VEGF-A (Peprotech) (human) (UniProt P15692). Kind of assay: ELISA on coated antigen, 0.2 µg/mL.
Assay [2] has the same target. Kind of assay: ELISA on coated antigen, 2 µg/mL. For orientation: ELISA stands for enzyme-linked immunosorbent assay.
Assay [3] shares this target. Kind of assay: ELISA on coated antigen, 20 µg/mL.

In the case of “Bevacizumab (Avastin, Genentech) (antibody)”, the values for the absorbance at 492 nm in assay [1], in assay [2] and in assay [3] were 1.89 OD 492 nm, 2.91 OD 492 nm and 3.2 OD 492 nm, respectively.
